Target: T1, elongation initiation factor 4E (eIF4E) (UniProt P06730 2-217, limits assumed)
T1 construct: mature; In SPR it was amine-coupled to a CM5 chip with m7GTP present; also called full-length eIF4E; GS-eIF4E (biotinylated form used only for phage panning)
Experiment: SPR (Biacore T100), eIF4E immobilised on CM5 chip, peptide as analyte
Experimental: Running buffer consisted of 10 mM Hepes pH 7.6, 0.15 M NaCl, and 0.1% Tween20. Stock/DMSO diluted peptide solutions were diluted into 1.03× running buffer to make a peptide solution with 3% DMSO final concentration. […] Surface Plasmon resonance experiments were performed on a Biacore T100 machine.
Pure eIF4E was immnobilized on a CM5 sensor chip. The CM5 chip was conditioned with a 6 s injection of 100 mM HCL, followed by a 6 s injection of 0.1% SDS and completed with a 6 s injection of 50 mM NaOH at a flow rate of 100 μl/min. Activation of the sensor chip surface was performed with a mixture of NHS (115 mg ml⁻¹) and EDC (750 mg ml⁻¹) for 7 min at 10 μl min⁻¹. […]
Six buffer blanks were first injected to equilibrate the instrument fully and then a solvent correction curve was performed followed by a further two blank injections. […] Using a flow rate of 50 μl/min, compounds were injected for 60 s and dissociation was monitored for 180 s. […] Kds were determined using the BiaEvaluation software (Biacore) and calculated from both the response of the eIF4E coated CM5 chips at equilibrium and also kinetically from the dissociation and association phase data for each of the peptides. […] Each individual peptide Kd was determined from three separate titrations. […]

Protein sequences, listed by entry. Tags and fused reporters are not part of them. Residues count along the entry.
UniProt P06730, 2-217 limits assumed: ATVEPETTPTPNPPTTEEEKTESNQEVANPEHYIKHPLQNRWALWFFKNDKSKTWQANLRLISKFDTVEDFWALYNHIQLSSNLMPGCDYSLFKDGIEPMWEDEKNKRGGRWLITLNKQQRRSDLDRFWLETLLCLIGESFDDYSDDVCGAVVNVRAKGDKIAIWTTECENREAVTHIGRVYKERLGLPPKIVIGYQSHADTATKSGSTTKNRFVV

- Kd: 77 nM
B1: EE-12 (CEMGFFQDCG) (peptide)
peptide: CEMGFFQDCG
modifications: free N-terminal amine; C-terminal amide; disulphide bond between the two Cys (residues 1 and 9 of this peptide)
notes: EE-02 without A1
